Results published in patent US9802942B2, “Substituted 4-methyl-pyrrolo[1,2-A]pyrimidine-8-carboxamide compounds and uses thereof for modulating glucocerebrosidase activity” (Northwestern University, priority 2015, dated 2017).

By UniProt entry, the sequences of proteins in these tests, tags left out. Residues count along the entry.
UniProt P04062, 40-536 limits assumed: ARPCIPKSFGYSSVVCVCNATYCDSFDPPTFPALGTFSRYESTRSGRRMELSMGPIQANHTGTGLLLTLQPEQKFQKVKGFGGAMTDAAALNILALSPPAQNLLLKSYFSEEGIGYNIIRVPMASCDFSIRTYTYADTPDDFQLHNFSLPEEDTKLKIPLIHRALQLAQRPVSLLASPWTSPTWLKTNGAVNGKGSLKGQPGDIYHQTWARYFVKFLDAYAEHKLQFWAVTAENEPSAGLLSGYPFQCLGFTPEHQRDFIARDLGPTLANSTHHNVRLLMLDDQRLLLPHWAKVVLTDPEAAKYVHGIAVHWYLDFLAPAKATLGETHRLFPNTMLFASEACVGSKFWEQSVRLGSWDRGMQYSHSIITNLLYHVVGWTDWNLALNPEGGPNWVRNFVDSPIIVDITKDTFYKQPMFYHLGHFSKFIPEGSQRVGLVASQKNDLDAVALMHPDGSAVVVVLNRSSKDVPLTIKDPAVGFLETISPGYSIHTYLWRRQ

Assays:
[1] = target: glucocerebrosidase (GCase), recombinant wt. enzyme velaglucerase alfa (Homo sapiens, UniProt P04062); experiment: Glucocerebrosidase activity assay with red substrate (Res-β-glc); conditions: in words
Protocol: The compounds in DMSO solution 0.5 μL/well were transferred to a black 96-well plate (the final titration was 24 nM to 50 μM, 12 concentrations, 2 times dilution). 33.5 μL enzyme solution (7.5 nM final concentration) was transferred to the wells. After 5 min of incubation at room temperature, the enzyme reaction was initiated by the addition of 33 μL/well blue substrate or 66.5 μL/well red substrate. Final concentrations of the blue substrate (4MU-Glc) and red substrate (Res-Glc) were 1.5 mM and 30 μM, respectively. The red substrate reaction was measured in the Biotek Synergy H1 multi-mode plate reader with Ex=573 nm and Em=610 nm at 37° C. every 20 sec for 30 min. The blue substrate reaction was terminated by the addition of 33 μL/well stop solution (1 M NaOH and 1 M glycine mixture, pH 10) after 30 min of incubation at 37° C. The fluorescence was then measured in the plate reader at Ex=365 nm and Em=440 nm. […]
The compounds in DMSO solution 0.5 μL/well was transferred to a black 96-well plate (the final titration was 24 nM to 50 μM, 12 concentrations). […] The red substrate reaction was measured in the Biotek Synergy H1 multi-mode plate reader with Ex=573 nm and Em=610 nm at 37° C. in every 20 seconds for 30 min. […] The fluorescence was then measured in the plate reader with Ex=365 nm and Em=440 nm.

GCase = GCase (Homo sapiens, UniProt P04062); experiment: Binding affinity test by FP assay (competition with probe 3); conditions: in words; 19.5 nM to 10 μM
Protocol: The enzyme in GCase enzyme activity buffer (25 μL/well) was added to a 384-well black plate. The fluorescent probe 3 (25 nL/well, 50 nM final concentration) was transferred to a 384-well black plate using a Labcyte Echo 550 Liquid Handler system. Compounds in DMSO stock solution (50 nL) were transferred to the plate. The plate was shaken at room temperature in dark for 20 min. The final concentration was 19.5 nM to […], 10 concentrations, 2 times dilution. The fluorescence polarization was measured in a Molecular Devices Analyst GT with Ex=535 nm and Em=580 nm, G Factor=1.05.
The enzyme in GCase enzyme activity buffer (25 μL/well) was added to a 384-wells black plate, The fluorescent probe 3 (25 nL/well, 50 nM final concentration) was transferred to a 384-wells black plate by using Labcyte Echo 550 Liquid Handler system. Compounds 1, and 2 in DMSO stock solution (50 nL) (the final titration was 19.5 nM to 10 μM, 10 concentrations) were transferred to the plate. The plate was shook at room temperature in dark for 20 min. The fluorescence polarization was measured in Molecular Devices Analyst GT with Ex=535 nm and Em=580 nm, G Factor=1.05.

purified wt. GCase = purified wt. GCase (Homo sapiens, UniProt P04062); conditions: cited from earlier work

C#Cc1ccc(NC(=O)c2cnn3c(C)cc(C)nc23)cc1
activation activity in the Res-β-glc substrate enzyme activity assay [1]: did not show any activation activity
activity in FP competition with probe 3 (GCase): very weak activity
AC50 (purified wt. GCase): 5.2 µM
